# Binding of CDR-mutated scFvs to a peptide of the spike HR2 region

Target: peptide PDVDLGDISGINAS, taken from heptad repeat 2 (HR2) of SARS-CoV-2 spike.

Each scFv is VH, a (GGGGS)3 linker, VL, as in the parent Ab-14, and differs from it in the CDRs of the heavy chain only.
VH: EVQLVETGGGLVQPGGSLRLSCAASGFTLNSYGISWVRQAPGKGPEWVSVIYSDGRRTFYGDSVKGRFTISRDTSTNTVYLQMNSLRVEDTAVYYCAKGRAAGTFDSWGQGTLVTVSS
VL: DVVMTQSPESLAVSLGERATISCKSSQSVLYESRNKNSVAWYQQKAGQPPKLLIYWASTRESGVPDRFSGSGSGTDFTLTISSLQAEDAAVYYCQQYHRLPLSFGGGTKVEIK

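The parent was found by panning a naive human phage display library on the peptide. The variants were designed computationally from a first round of random CDR variants and then made and measured. Group labels follow the data file (Ctrl: baseline library sampled from a position-specific scoring matrix, with some repeated check sequences; Rand: our label for a block that the file lists under HC and that is probably the random mutants of the ten best first-round binders; En: ensemble of fine-tuned language models; GP: Gaussian process model; GPLM: also part of the Gaussian process libraries; HC: hill climbing; Gen: genetic algorithm; Gibbs: Gibbs sampling; a sequence that several methods proposed may carry one label only). The assay is AlphaSeq: two haploid yeast populations carry antibody and antigen on their surface. Pairs that bind mate more often; barcode pairs of the diploids are counted by sequencing. Scores were corrected for input abundance and mapped to Kd with protein pairs of known affinity run in the same pool. There are six technical replicates.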

Variants are written as CDR1, CDR2 and CDR3 of the heavy chain (limits as in the source). Parent: GFTLNSYGIS, VIYSDGRRTFYGDSVK, GRAAGTFDS. Kd is apparent (estimated from mating counts) and averaged on the log scale over replicates with a signal. Smaller is tighter. A pair that was not seen in any replicate is written "nd"; this usually means weak binding, but a binder can also be missed. The authors averaged sequences with at least three values out of six and counted those with two or fewer as poor binders. The range of this assay differs from that of the first round, and the authors advise against merging the two. Empty control strains, which show no peptide, gave a signal in 1% of pairings with all heavy chain designs; the median was 120 nM and 95% of these signals were weaker than 7.0 nM. No background was subtracted.

CDR-H1 | CDR-H2 | CDR-H3 | group | Kd (apparent) | detected
GFTLNSYGSS | VIYSDGERTFYADSVK | GRAAGTFDS | Ctrl | nd | 0/6
GFTLNDYGIS | VIYSDGRRTWYIDSVK | GRAAGTFIS | GP_HC | nd | 0/6
GFTLESYGIS | VIYSDGRRTFYDDSVK | GKLAGTFDS | GP_HC | 24 nM | 6/6
GFPIDEYGIS | VIYADGRRTVYSDNVK | GNYGASIKI | En_Gibbs | nd | 0/6
GFKIDEYGIS | VIYADGMRARYSDAVK | GVKVGNVVM | En_Gibbs | 65 nM | 4/6
GFDLNEYGIS | VIYADGVRKAYADDVK | GNVAGTFDV | En_Gen | 330 pM | 6/6
GFDLDEYGIS | VIYADGLRTAYADSVK | GEVAGTFDV | En_Gen | 380 pM | 6/6
GKELDEYGIS | VIYADGVRKAYQNSVK | GQVTFFIRV | En_Gibbs | nd | 0/6
GFELNSYGIS | VIYSDGRRTFYADSVK | GQAAGTFDK | GPLM_Gibbs | 2.1 nM | 6/6
GFDLNEYGIS | VIYADGMRTFYSDSVK | GNVAGTFDS | En_HC | 700 pM | 6/6
GFTLNSYGIS | VIYSDGRRTFYGDSVK | GKAAGTVDS | Ctrl | 9.4 nM | 4/6
GFDLMEYGVS | VIYADGQRAFYTDSVK | GKGAGIALI | En_Gibbs | 55 nM | 6/6
AFTLNSYGIS | VIYADDRRTFYGDSVK | GAAAGTNKS | Rand | nd | 0/6
GHTLNEYGIS | VIYADGRRTSYGDSVK | GRAAGTFDS | Ctrl | 1.2 nM | 6/6
GFILNQYGIS | VIYSDGRRTFYSDSVK | TRAAGFFDS | Rand | nd | 0/6
GFALNSYGIS | VIYSDGRRTFYGDSVK | CYAAGTFDS | Ctrl | nd | 0/6
GFNLNSYGIS | VIYSDGRRTFYGDSVK | GRAAFTFDS | Ctrl | nd | 0/6
GFDLNEYGIS | VIYADGKRTAYTDSVK | GQNAGTFDV | En_Gen | 490 pM | 6/6
KFALNEYGIS | VIYSDGRRTFYGDSVK | GRTAGTFDS | GP_Gibbs | 2.5 nM | 6/6
GFTLNEYGIS | VIYSDGRRTFYGDSVK | GRWAGTFDD | GP_HC | 33 nM | 5/6
GKDIESYGVS | VIYADGKRIAYANKFK | GSNAGSFVM | En_Gibbs | nd | 0/6
GFDLNEYGIS | VIYADGMRTAYTDDVK | GNVAGTFDV | En_Gen | 340 pM | 6/6
GFDLAEYGVS | VIYADGKRTEYSDHVK | GENGGFFDL | En_Gibbs | 48 nM | 1/6
GFTLNSYGIS | VIYSDGQRTFYGDSVK | GRVHGTFDS | Ctrl | nd | 0/6

Further variants, results first:

Kd (apparent) | detected | CDR-H1 | CDR-H2 | CDR-H3 | group
350 pM | 6/6 | GFDLNEYGIS | VIYADGMRTAYVDSVK | GNNAGTFDL | En_Gen
nd | 0/6 | GFTLNSYGIS | VIYSCGRRTFYGDSVK | GRGAGTFDS | Ctrl
210 pM | 6/6 | GFDLNEYGIS | VIYADGMRTAYVDSVK | GNVAGTFDT | En_Gen
110 pM | 6/6 | GFDLNEYGIS | VIYADGKRTFYADSVK | GQAAGTFDK | En_HC
nd | 0/6 | GFSLNEYGIS | VIYSDGRRTFYADSVK | GRAAVTFDQ | GPLM_HC
3.7 nM | 6/6 | GFTLNSYGIS | VIYSDGQRTFYADDVK | GQAAGTFDL | GP_Gibbs
3.9 nM | 6/6 | GFSLNEYGIS | VIYSDGRRTFYVDSVK | GQAAGTFDT | GP_Gibbs
2.7 nM | 5/6 | GFTLNEYGIS | VIYSDGRRTFYEDSVK | GRFAGTFDS | GPLM_HC
73 nM | 6/6 | GFDLNEYGIS | VIYADGSRTFYSDSVK | GQVAGTFDV | En_HC
2.8 nM | 6/6 | GFTLNEYGIS | VIYSDGRRTFYGDSVK | GKTAGTFDK | GP_Gen
8.0 µM | 1/6 | GKDLEEYGIS | VIYADGHRAAYADSVK | GINMDVMTV | En_Gibbs
nd | 0/6 | LFTLNSYGIS | VIYSDGERTFYDDSVK | GNAAGYFDS | Ctrl
820 nM | 1/6 | GEGLDEYGVS | VIYADGRKQSYSDSVK | GAIAGNFDA | En_Gibbs
170 pM | 6/6 | GFDLNEYGIS | VIYADGVRTAYADSVK | GNVGGTFDV | En_Gen
nd | 0/6 | GFDINEYGIS | VIFADGMRTAYDNSVK | GQMAGFFIM | En_Gibbs
1.5 nM | 6/6 | GFDLNSYGIS | VIYSDGRRTFYADQVK | GKTAGTFDS | GP_Gen
830 pM | 6/6 | GFDLDEYGIS | VIYADGKRTAYSDSVK | GNNAGTFDL | En_Gen
nd | 0/6 | GFPLNSYGIS | VIYSDGRRTFYGDSVK | GRAACTFCS | Ctrl
nd | 0/6 | GFNLNSYGIS | VIYSDGRRTFYGDSVK | GRAIGTFDS | Ctrl
9.3 nM | 6/6 | GFTLNEYGIS | VIYSDGRRTFYSDSVK | GRLAGTFDR | GP_HC
2.5 nM | 6/6 | GFDLNEYGIS | VIYADGIRTAYSDSVK | GNQAGTFDV | En_Gen
3.3 nM | 2/6 | GFDLNEYGIS | VIYADGVRTAYIDSVK | GNQAGTFDI | En_Gen
810 pM | 6/6 | GFDLNEYGIS | VIYADGMRTAYADTVK | GQNAGTFDV | En_Gen
nd | 0/6 | GFDLNEYGIS | VIYADGQRTAYADSVK | GNEAGTFDI | En_Gen

The first 4 variants above that were never detected:

CDR-H1 | CDR-H2 | CDR-H3 | group | Kd (apparent) | detected
GFTLNSYGSS | VIYSDGERTFYADSVK | GRAAGTFDS | Ctrl | nd | 0/6
GFTLNDYGIS | VIYSDGRRTWYIDSVK | GRAAGTFIS | GP_HC | nd | 0/6
GFPIDEYGIS | VIYADGRRTVYSDNVK | GNYGASIKI | En_Gibbs | nd | 0/6
GKELDEYGIS | VIYADGVRKAYQNSVK | GQVTFFIRV | En_Gibbs | nd | 0/6

Reference: Li et al. 2023, doi:10.1038/s41467-023-39022-2. File: FLAb, binding data.